Nrf2 ARE act = Nrf2 pathway activation | Potency, µM (top dose mostly 46.1 µM), for the others: at the top dose activation, actives largely listed as activators | AID 624171 | AREc32 ARE-luciferase reporter (MCF7-derived line), luminescence, 24 h | actives 0.31% (n = 410,000); note: potency is the fitted concentration of half-maximal effect; % of control where 0% means no effect; nearly all actives have a fitted effect of over 65% in size
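AREc32 cells carrying an ARE-driven firefly luciferase, 1000 cells/well in OPTI-MEM with 5% FBS, dosed after overnight attachment and incubated 24 hr at 37 deg C. Steady-Glo luminescence read after 30 min at RT.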
A549 viability = counter-screen for Nrf2 inhibitors: cytotoxicity in A549 cells; A549 ARE-Fluc cells, CellTiter-Fluor viability, 18-24 h; Potency, µM (doses to about 46 µM), for the others: at the top dose activity change, negative = cytotoxicity, usual class: inhibitors; actives 0.16% (n = 390,000); AID 504648; note: potency is the fitted concentration of half-maximal effect; % is set by controls: 0 for no effect and ±100 for the full control effect
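A549 ARE_Fluc cells in 5% FBS OPTI-MEM were exposed to compounds in concentration-response for 18-24 h at 37 deg C. Viability was read by CellTiter-Fluor fluorescence (Ex 405/Em 525) after 30 min, before the luciferase read.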
GALK inhibitor = inhibitors of human galactokinase. Purified GALK, Kinase-Glo residual ATP luminescence. Potency, µM (doses to about 57.5 µM), without a hit: top-dose activity change, negative = inhibition, hits mostly inhibitors. P51570. actives 0.007% (n = 270,000); note: potency is the fitted concentration of half-maximal effect; % is set by controls: 0 for no effect and ±100 for the full control effect
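GALK at 5 nM final was combined with compound, 35 uM ATP and 100 uM galactose in HEPES pH8.0 with MgCl2 and DTT. The reaction ran one hour at room temperature before luminescent ATP detection.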
miR-21 FLuc = raises the signal of a miR-21 reporter | AID 2288 | 340,000 tested, under 10 active | Potency, µM (series often up to 38.3 µM), without a hit: at the highest dose reporter change, positive = more light | HeLa miR-21 FLuc reporter, luciferase, 48 h; active = well fitted rising curve with a large enough effect; inconclusive = small, poorly fitted or top-dose-only effect; inactive = no such curve, though single readings can be large or run the other way;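 further: % of control where 0% means no effect; miR-21 action dims this reporter so a rising signal means less miR-21 action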
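Using DMEM plus 10% FBS, HeLa miR-21-FLuc cells are incubated with test compounds (final up to about 40uM) for 48 hours; firefly luciferase signal is then imaged following reagent-mediated lysis.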
PI4K2A block = PI4K2A (human) kinase inhibition; Q9BTU6; purified PI4K2A, ADP-Glo luminescence, 1 h; active compounds read low; activity change, negative = inhibition, % at 76.9 µM; actives 0.13% (n = 420,000); AID 1346378; in the data active = activity change below about -50%; inconclusive = mostly about -30% to -49%;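 note: -100% = wells without enzyme as full effect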
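In this quantitative HTS, ADP production by PI4K2A was quantified luminescently after 1 h at ambient temperature; 100 microM adenosine served as plate-quality control.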
Nrf2 block = blocks Nrf2 signaling; Potency, µM (highest dose often 46 µM), without a hit: top-dose activity change, negative = inhibition, most hits filed as inhibitors; A549 ARE-Fluc reporter, luciferase luminescence, 18-24 h; actives 2.1% (n = 360,000); note: potency is the fitted concentration of half-maximal effect; % is set by controls: 0 for no effect and ±100 for the full control effect; nearly all actives have a fitted effect of over 60% in size
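Reporter: ARE-Fluc in A549. Exposure: 18-24 h, 37 °C, 5% CO2, 5% FBS OPTI-MEM. Readouts: fluorescent cytotoxicity (CellTiter-Fluor), then luminescent Nrf2 signal after BugLite.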
* marks the source's active call; other numbers are inactive results; ? = inconclusive; nt = not tested or not shown; [ ] = remark or other dose. Shown are actives, neighbours in structure and some others; about 2.2% of the full set was active somewhere. Unless noted, calls come from the whole dose curve; as a rule, active = well fitted curve in the direction sought with a large enough effect; inconclusive = small, poorly fitted or top-dose-only effect, or another doubt; inactive = no such curve, though single readings can be large; an effect the other way counts as inactive or inconclusive.

SMILES | Nrf2 ARE act | A549 viability | GALK inhibitor | miR-21 FLuc | PI4K2A block | Nrf2 block
O=C(/C=C/c1ccco1)c1ccc(O)cc1 | nt | nt | -2% | -37% | nt | nt
Cc1ccc(NC(=O)c2ccc(N/N=C/c3cccc(O)c3)c([N+](=O)[O-])c2)cc1 | 3% | ? | -1% | -6% | -3 | 18µM*
CN(C)S(=O)(=O)c1cccc(NC(=O)c2ccc3nccnc3c2)c1 | 3% | ? | 0% | 14% | 4 | 5.8µM*
Cc1cc(NC(=O)c2cccc(S(=O)(=O)N(C)C)c2)n(-c2ccccn2)n1 | 0% | -12% | 3% | 3% | 3 | 26µM*
C=CCc1cc(F)c(S(=O)(=O)N2CCN(S(=O)(=O)c3ccc4c(c3)OCCO4)CC2)cc1F | nt | -1% | nt | nt | nt | 14%
CC(=O)c1cc2ccc(O)cc2oc1=O | -1% | 24% | -3% | 3% | -3 | 9%
Cc1ccc(N=c2oc3cc(O)ccc3cc2C(N)=O)cc1 | 0% | 2% | -1% | 24% | -4 | 21µM*
O=S(=O)(c1c(F)cccc1F)N1CCN(S(=O)(=O)c2c(F)cccc2F)CC1 | nt | -4% | nt | nt | nt | ?
CC(C)(C)Nc1ncnc2sc(-c3ccccc3)cc12 | 1% | ? | 2% | 12% | 0 | 12µM*
C=COCCCNc1ncnc2sc(-c3ccccc3)cc12 | 0% | -16% | -2% | 26% | 1 | 13µM*
O=[S+]([O-])(c1ccc2nsnc2c1)N1CCN([S+](=O)([O-])c2c(F)cccc2F)CC1 | nt | -2% | nt | nt | nt | 0%
CC(C)CN1C(=O)C[C@@]2(C(=O)N(C)c3ccc(NS(=O)(=O)C4CC4)cc32)C1c1ccccc1 (stereo partly drawn) | nt | nt | nt | nt | -20 | nt
CC(C)(C)c1ccc(Cn2nnc3c(=O)[nH]c(C4CCN(C(=O)c5ccco5)CC4)nc32)cc1 | 3% | ? | 13% | -4% | -1 | 26µM*
CC(C)(C)c1ccc(Cn2nnc3c(=O)[nH]c(C4CCCN(C(=O)c5cccs5)C4)nc32)cc1 (stereo not drawn) | 2% | -18% | -5% | -3% | 4 | 23µM*
Cc1csc(CNc2ncnc3cc(-c4ccc5c(c4)OCO5)ccc23)n1 | nt | -8% | nt | nt | nt | -5%
COc1ccc2c(c1)c(C(C)=O)c(C)n2CCc1ccccc1 | -1% | -18% | 1% | 9% | 2 | 13µM*
Cc1cccc(CNC(=S)OC2CCC23CCC(c2ccccc2)CC3)c1 (stereo not drawn) | nt | nt | nt | nt | 1 | nt
Cc1ccccc1-c1cc(C(=O)NCc2ccc(OC(F)(F)F)cc2)n(CC2CC(c3cccnc3)=NO2)n1 (stereo not drawn) | -3% | -25% | nt | nt | 2 | 21µM*
CC1CCCN(S(=O)(=O)c2ccc(C(=O)Nc3ccccc3-c3nc4ccccc4[nH]3)cc2)C1 (stereo not drawn) | 0% | 2% | 0% | -5% | -1 | 4%
CC1CCN(S(=O)(=O)c2ccc(C(=O)Nc3ccccc3-c3nc4ccccc4[nH]3)cc2)CC1 | 0% | -9% | 4% | -1% | 1 | 26µM*
Clc1ccc(-c2nc3cnccn3c2Nc2ccc3c(c2)OCO3)cc1 | -1% | ? | 0% | 9% | -10 | 23µM*
Nc1ncnc2oc(-c3ccco3)c(-c3ccco3)c12 | 17% | -20% | -2% | -22% | ? | 15µM*
Nc1ncnc2oc(-c3ccoc3)c(-c3ccco3)c12 | nt | -1% | nt | nt | nt | ?
O=C(CN1CC(=O)Oc2ccccc21)OCC(=O)c1ccc(F)cc1 | ? | ? | 11% | -1% | 6 | -5%
O=C(CN1CC(=O)Oc2ccccc21)OCC(=O)c1ccc(Br)cc1 | 13µM* | ? | nt | nt | -8 | -23%
CCCCOc1ccc(C(=O)NC2CCCCN(CC)C2=O)cc1 (stereo not drawn) | nt | nt | nt | nt | 2 | nt
CCc1ccc(/C=C2\SC(=S)N(CCC(=O)NCCCN3CCOCC3)C2=O)cc1 | 25% | ? | 4% | 1% | -3 | ?
Cc1ccc(/C=C2\SC(=S)N(CCC(=O)NCCCN3CCOCC3)C2=O)cc1 | ? | 15µM* | -2% | 4% | 0 | ?
COc1ccc(/C=C2\SC(=S)N(CCC(=O)NCCCN3CCOCC3)C2=O)cc1 | 12% | 12µM* | 0% | 1% | 3 | ?
O=C(OC12CCCN(C1)/C(=C/c1ccc(Cl)cc1)C2)c1ccc(Cl)cc1 (stereo not drawn) | nt | nt | nt | nt | 0 | nt

Retrieved by compound from the entries so far:
SMILES | Nrf2 ARE act | A549 viability | GALK inhibitor | miR-21 FLuc | PI4K2A block | Nrf2 block
COc1ccc2c(c1)c(C(C)=O)c(C)n2CCc1ccccc1 | -1% | -18% | 1% | 9% | 2 | 13µM*
Nc1ncnc2oc(-c3ccco3)c(-c3ccco3)c12 | 17% | -20% | -2% | -22% | ? | 15µM*
Cc1ccc(N=c2oc3cc(O)ccc3cc2C(N)=O)cc1 | 0% | 2% | -1% | 24% | -4 | 21µM*

Continuation.
SMILES | Nrf2 ARE act | A549 viability | GALK inhibitor | miR-21 FLuc | PI4K2A block | Nrf2 block
Cc1cccc(Cn2c(=O)n(CCCC(=O)NCc3ccccc3Cl)c(=O)c3ccccc32)c1 | 0% | -18% | nt | 21% | -13 | 10µM*
Cc1ccc(C)c(Cn2c(=O)n(CCCCC(=O)NCc3ccccc3Cl)c(=O)c3ccccc32)c1 | 0% | -7% | nt | -8% | 3 | 6%
CCCC(=O)N(CCc1ccc(OC)cc1)Cc1nc2ccccc2c(=O)[nH]1 | -1% | -8% | 3% | 11% | -3 | 23µM*
COCC(=O)N(CCc1ccc(OC)cc1)Cc1nc2ccccc2c(=O)[nH]1 | 0% | -8% | -3% | -2% | -1 | -4%
CCN(Cc1nc2ccccc2c(=O)[nH]1)C(=O)COc1ccccc1Cc1ccccc1 | 1% | -15% | nt | nt | -2 | 16µM*
c1ccc(CNc2nc(-c3ccccn3)nc3ccccc23)cc1 | -1% | -17% | 0% | ? | -1 | 16µM*
c1ccc(CNc2nc(-c3ccccc3)nc3ccccc23)cc1 | 0%[9.22 µM] | -17% | 1% | -8% | 2 | ?
Cc1cc(NCc2ccccn2)nc2ccccc12 | 0% | -1% | 0% | -25% | -1 | 5%
Cc1nc(NCc2ccccn2)c2ccccc2n1 | -1% | -2% | -1% | 0% | -3 | 6.5µM*
CCc1nc(NCc2ccccn2)c2oc3ccccc3c2n1 | 0% | -12% | 3% | 21% | 10 | 9.2µM*
c1ccc(CNc2ncnc3c2oc2ccccc23)nc1 | 5% | 12% | -2% | -59% | -7 | ?
Clc1cccc(CNC2CCC23CCCCC3)c1 (stereo not drawn) | nt | nt | nt | nt | -3 | nt
CC(=O)c1cc(-c2cc(C(=O)O)cc([N+](=O)[O-])c2)c(=O)n2c1CCC2 | nt | nt | nt | nt | -11 | nt
COC(CNC(=O)[C@H](Cc1ccccc1)NC(C)(C)C(=O)NC1CCCCC1)OC | nt | nt | nt | nt | 5 | nt
C[C@H]1[C@H](N)CC[C@@]23CCCN2C(=O)CCC[C@@H]13 | nt | nt | nt | nt | 6 | nt

Sorted by molecular weight (low to high): some entries from above
SMILES | Nrf2 ARE act | A549 viability | GALK inhibitor | miR-21 FLuc | PI4K2A block | Nrf2 block
Cc1ccc(N=c2oc3cc(O)ccc3cc2C(N)=O)cc1 | 0% | 2% | -1% | 24% | -4 | 21µM*
CCc1nc(NCc2ccccn2)c2oc3ccccc3c2n1 | 0% | -12% | 3% | 21% | 10 | 9.2µM*
CC1CCCN(S(=O)(=O)c2ccc(C(=O)Nc3ccccc3-c3nc4ccccc4[nH]3)cc2)C1 (stereo not drawn) | 0% | 2% | 0% | -5% | -1 | 4%
